Test system: .phi.6 virus
Settings: Example 10; 1%, 353 kr; words

CCCCOP(=O)(OCCCC)OCCCC
viral inactivation with X-ray in hydrated and lyophilized plasma: substantially enhanced

From patent US6187572A, “Method of inactivation of viral and bacterial blood contaminants” (Baxter International Inc., priority 1993, dated 2001)
